Measured values as given in patent US20110195153A1, “Nutritional Formulation Comprising A Cows Milk Peptide Containing Hydrolysate And Or Peptides Derived Thereof For Tolerance Induction” (MEAD JOHNSON NUTRITION COMPANY, priority 2009, published 2011).

Tested on: T-cells
Experiment: Tolerance induction experiment: T-cell fraction preincubated, combined with APCs and re-stimulated
Format: cell-based, human
Settings: individual KF1, tolerized with UCO (buffer), the substance is the stimulant, first line
Text: For the tolerance induction experiment, PBMCs from healthy donors were isolated by Ficoll-density gradient, and the cells were further separated into two fractions. T-cells were enriched with a human Pan-T-cell isolation Kit (Miltenyi, Bergisch Gladbach, Germany), whereas antigen-presenting cells were enriched with human CD3 MicroBeads (Miltenyi, Bergisch Gladbach, Germany) by magnetic cell sorting. The purity of the cell fractions was confirmed by FACS analysis.
The cell fractions containing the T-cells were incubated overnight with different peptides or medium alone at 37° C. with 5% CO2 and 95% humidity, the antigen-presenting-cell fractions were kept overnight at the same conditions without any antigens. On the next day, the T-cell fractions were washed with DPBS (GIBCO) three times and the T-cell and antigen-presenting-cell fractions were combined. The cells (2×10^5 cells per well) were cultured in triplicates in 96-well plates as described above. Cells were stimulated with different concentrations of milk samples, 4U IL-2 per well, or medium alone. The analysis was done as described for the lymphoproliferative assays.
T-cell fractions were preincubated over night with high amounts of Nutramigen™ base (VTP11), extensive casein hydrolysate (VTP15), whole cow's milk whey protein (VTP14), Nutramigen™ (VTP3), synthetic peptides ([…], Phl p 5-Pep 1) or buffer (UCO). On the next day the T-cells and the APCs were combined and stimulated with milk samples (VTP14, VTP1). T cell stimulation is given either in counts per minute (cpm) or as stimulation index (SI).

IL-2: 4U IL-2 per well (Roche) served as a positive control
SI: 0.9 | mean cpm: 14486 cpm | cpm (individual experiments): 16371 cpm and 12600 cpm

Where “and” joins values, the source holds several entries; their conditions need not be identical. Equal values may be shown once.
